Data on two molecules can be found in ChEMBL document CHEMBL1201862, “PubChem BioAssay data set” (2004).

The chains behind the UniProt entries cited, without tags or fusion partners. Where a name states a change or a piece, a line headed by the entry shows the natural chain unless it says otherwise.
UniProt O75496: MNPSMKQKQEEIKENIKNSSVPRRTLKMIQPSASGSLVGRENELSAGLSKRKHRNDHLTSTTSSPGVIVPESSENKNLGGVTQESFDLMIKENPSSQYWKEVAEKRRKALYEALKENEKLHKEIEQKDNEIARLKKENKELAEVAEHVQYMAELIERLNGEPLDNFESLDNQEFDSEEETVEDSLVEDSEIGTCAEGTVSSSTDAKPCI

Only a part is listed here, and it is no random draw. These assays gave more results; the selection is not random. Calls of active or inactive are those of the source. The calls are words filed in the database; no cut-off is given here.

The experiment addresses Geminin (Homo sapiens) (UniProt O75496). The experiment is described as follows: A quantitative high throughput screen for small molecules that induce DNA re-replication in SW480 colon adenocarcinoma cells. In kind it is functional, cell-based.
For the molecule `O=C(O)/C=C\C(=O)O`, the Potency entry was “inactive”.

With `O=C(O)/C=C/C(=O)O`, the Potency result is “inactive”.
